In patent US20030001133A1, “Phosphate ester base stocks comprising mixed n-butyl/isobutyl phosphate esters and aircraft hydraulic fluids comprising the same” (published 2003):

How the values were obtained:
[1] = Viscosity of blends (base stock plus additives); settings: base stock after adding antioxidants, acid scavenger, triaryl phosphate, VI improver
[2] = stated as known; cited from earlier work
[3] = Density of blends (base stock plus additives); settings: 25° C.; base stock after adding antioxidants, 6 wt. % acid scavenger, 8 wt. % triaryl phosphate, 14 wt. % VI improver
[4] = Density of phosphate esters; settings: 25° C.; phosphate ester without additives
[5] = Viscosity of phosphate esters; settings: phosphate ester without additives

SMILES: CCCCOP(=O)(OCCCC)OCCCC
- Viscosity ([1]; 40° C.): 9.12 cSt
- Viscosity ([1]; 100° C.): 3.28 cSt
- Viscosity ([1]; −54° C.): 1013 cSt
- Skin irritation [2]: skin irritant
- Density [3]: 0.9859
- Density [4]: 0.9725
- Viscosity ([5]; 40° C.): 2.55 cSt
- Viscosity ([5]; −54° C.): 124 cSt
